Laboratory results from ChEMBL document CHEMBL1147482, “Novel and potent transforming growth factor beta type I receptor kinase domain inhibitor: 7-amino 4-(2-pyridin-2-yl-5,6-dihydro-4H-pyrrolo[1,2-b]pyrazol-3-yl)-quinolines” (Bioorg Med Chem Lett, 2004).

Chains of the proteins cited; added tags and fusions are not shown.
UniProt Q16539, whole entry: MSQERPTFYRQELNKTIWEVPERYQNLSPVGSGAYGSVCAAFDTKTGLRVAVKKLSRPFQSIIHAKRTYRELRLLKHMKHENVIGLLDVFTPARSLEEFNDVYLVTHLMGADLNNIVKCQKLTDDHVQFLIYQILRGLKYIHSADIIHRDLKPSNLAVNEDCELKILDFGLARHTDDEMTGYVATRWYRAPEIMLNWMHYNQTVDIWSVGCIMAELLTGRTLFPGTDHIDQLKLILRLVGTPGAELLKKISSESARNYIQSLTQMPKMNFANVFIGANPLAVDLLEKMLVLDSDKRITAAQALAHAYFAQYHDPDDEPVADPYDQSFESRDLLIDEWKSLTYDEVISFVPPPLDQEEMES

Molecular target: Mitogen-activated protein kinase 14 (Homo sapiens, UniProt Q16539)
Assay: Inhibitory activity against Mitogen-activated protein kinase p38

IC50: 51 µM
Structure (SMILES): c1ccc(-c2n[nH]cc2-c2ccnc3ccccc23)nc1
